Biological target: Fascin-1 1-493 (full-length human Fascin-1 WT, untagged) (human, UniProt Q16658)
Assay: cell-based or functional assay

B1: Nb 3E11 (VHH)
VHH: QVQLQESGGGLVQAGGSLRLSCAASGRIFSSTRMGWFRQAPGKDREFIASIVWGTTTTYYVDSVKGRFTISRDNAKNMVFLQMNSLKPEDTAVYYCAAKIYYSGTYLAFNPDYWGQGTQVTVSS
Question: B1 was tested. Which “percentage inhibition of Fascin-1 F-actin-bundling (co-sedimentation, densitometry of SDS-PAGE gels), titration of the Nb 3E11 : Fascin-1 molar ratio; the pair blocked is Fascin-1 with F-actin” value did it give?
Answer: The value was 100%.

From paper PMC10960945, “A nanobody inhibitor of Fascin-1 actin-bundling activity and filopodia formation” (Open Biology, 2024)
